A short description of this data set: Determination of the solubility of ipratropium bromide in ethanol / HFA 134a (visual appearance, polarized light). In kind it is physicochemical. As to conditions: 20.1 mg drug, storage at 4.0°C.

`CC(C)[N+]1(C)[C@@H]2CC[C@H]1CC(OC(=O)C(CO)c1ccccc1)C2.[Br-]` (some centres unmarked) [ipratropium bromide]: the “Visual appearance (crystallisation)” value is “crystallise” (ethanol levels 14.7, 15.0, 16.8, 17.2, 17.5, 17.9 % by weight in HFA 134a) and “not to crystallise” (ethanol levels 18.9 to 40.1 % by weight in HFA 134a).

For the origin of these results see patent publication US6964759B2, “Formulations containing an anticholinergic drug for the treatment of chronic obstructive pulmonary disease” (Chiesi Farmaceutici S.p.A., priority 2000, dated 2005).
